This assay has as its target RIPK1 (Homo sapiens, UniProt Q13546). The experiment in a line: RIPK1 degradation Western Blot assay. Particulars: read-out: Degradation Activity (DC50, concentration at which 50% of RIPK1 kinase has been degraded), human cells, 24 h incubation at 37° C. In kind it is cell-based. Background: A western blot detects proteins with antibodies after separation by electrophoresis.

Protein sequences, listed by entry. Tags and fused reporters are not part of them.
UniProt Q13546, whole entry: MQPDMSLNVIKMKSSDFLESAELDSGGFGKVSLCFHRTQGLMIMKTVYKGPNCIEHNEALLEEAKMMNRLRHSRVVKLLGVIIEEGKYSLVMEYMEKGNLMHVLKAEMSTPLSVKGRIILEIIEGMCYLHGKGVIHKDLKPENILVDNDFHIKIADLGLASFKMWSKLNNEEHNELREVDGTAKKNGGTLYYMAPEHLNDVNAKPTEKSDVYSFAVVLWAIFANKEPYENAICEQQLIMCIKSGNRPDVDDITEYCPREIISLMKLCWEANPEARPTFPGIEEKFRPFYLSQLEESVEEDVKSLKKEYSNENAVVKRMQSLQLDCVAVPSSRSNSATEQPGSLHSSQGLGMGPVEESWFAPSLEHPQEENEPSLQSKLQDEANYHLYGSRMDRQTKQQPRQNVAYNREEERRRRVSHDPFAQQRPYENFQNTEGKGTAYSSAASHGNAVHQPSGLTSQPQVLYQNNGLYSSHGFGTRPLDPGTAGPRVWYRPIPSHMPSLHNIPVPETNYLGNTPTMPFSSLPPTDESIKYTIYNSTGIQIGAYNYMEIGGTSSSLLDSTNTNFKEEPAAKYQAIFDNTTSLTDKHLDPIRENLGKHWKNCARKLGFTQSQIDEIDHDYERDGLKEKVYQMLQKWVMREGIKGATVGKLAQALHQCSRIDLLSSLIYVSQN

For `Cc1ncsc1-c1ccc([C@H](C)NC(=O)[C@@H]2C[C@@H](O)CN2C(=O)[C@@H](NC(=O)CCCCCCCCCCCCC(=O)NCCCn2cc(-c3ccc4c(c3)CCN4C(=O)Cc3cccc(OC(F)(F)F)c3)c3c(N)ncnc32)C(C)(C)C)cc1`, the DC50 is under 1000 nM.

Consider `Nc1ncnc2c1c(-c1ccc3c(c1)CCN3C(=O)Cc1cccc(OC(F)(F)F)c1)cn2CCCNC(=O)CCCCCCCCNC(=O)CNc1ccc(C(=O)NC2CCC(=O)NC2=O)nc1` (stereo not drawn), for which the DC50 lay in the range of 1000 to 10000 nM.

`Cc1ncsc1-c1ccc([C@H](C)NC(=O)[C@@H]2C[C@@H](O)CN2C(=O)[C@@H](NC(=O)CCCCN2CCC(C#Cc3ccc(C(=O)NCCCn4cc(-c5ccc6c(c5)CCN6C(=O)Cc5cccc(OC(F)(F)F)c5)c5c(N)ncnc54)cc3)CC2)C(C)(C)C)cc1`: the DC50 was under 1000 nM.

`O=C(NCCOCCOCCC(=O)N1CCC(C(=O)N2N=CCC2c2ccccc2)CC1)[C@@H]1NC2(CCCCC2)[C@@]2(C(=O)Nc3cc(Cl)ccc32)[C@H]1c1cccc(Cl)c1F` (stereo partly drawn): the DC50 was 1000 to 10000 nM.

In the case of `Nc1ncnc2c1c(-c1ccc3c(c1)CCN3C(=O)Cc1cccc(OC(F)(F)F)c1)cn2CCCNC(=O)CCCCCCCCNC(=O)CNc1cccc2c1C(=O)N(C1CCC(=O)NC1=O)C2=O` (stereo not drawn), the DC50 fell in the range of 1000 to 10000 nM.

As to `Cc1ncsc1-c1ccc([C@H](CC(=O)NCCCCCCCCCCC(=O)NCCCCCCCn2cc(-c3ccc4c(c3)CCN4C(=O)Cc3cccc(OC(F)(F)F)c3)c3c(N)ncnc32)NC(=O)[C@@H]2C[C@@H](O)CN2C(=O)[C@@H](NC(=O)C2(F)CC2)C(C)(C)C)cc1`, the DC50 was under 1000 nM.

`Nc1ncnc2c1c(-c1ccc3c(c1)CCN3C(=O)Cc1cccc(OC(F)(F)F)c1)cn2CCCNC(=O)CCCCCCCCCCNC(=O)C1CCN(c2cncc(C(=O)NC3CCC(=O)NC3=O)c2)CC1` (stereo not drawn): the DC50 is under 1000 nM.

As for `Cc1ncsc1-c1ccc([C@H](C)NC(=O)[C@@H]2C[C@@H](O)CN2C(=O)[C@@H](NC(=O)CCOCCOCCC(=O)NCCCn2cc(-c3ccc4c(c3)CCN4C(=O)Cc3cccc(OC(F)(F)F)c3)c3c(N)ncnc32)C(C)(C)C)cc1`, the DC50 was under 1000 nM.

Take `Cc1ncsc1-c1ccc([C@H](C)NC(=O)[C@@H]2C[C@@H](O)CN2C(=O)[C@@H](NC(=O)CCOCCOCCOCCOCCOCCn2cc(-c3ccc4c(c3)CCN4C(=O)Cc3cccc(OC(F)(F)F)c3)c3c(N)ncnc32)C(C)(C)C)cc1`: the DC50 was under 1000 nM.

Consider `Cn1c(=O)n(C2CCC(=O)NC2=O)c2ccc(CCC(=O)NCCCCCCCCCCC(=O)NCCCn3cc(-c4ccc5c(c4)CCN5C(=O)Cc4cccc(OC(F)(F)F)c4)c4c(N)ncnc43)cc21` (stereo not drawn), for which the DC50 is under 1000 nM.

With `CNC(=O)C[C@H](NC(=O)[C@@H]1C[C@@H](O)CN1C(=O)[C@@H](NC(=O)CCCCCCCCCCC(=O)NCCCn1cc(-c2ccc3c(c2)CCN3C(=O)Cc2cccc(OC(F)(F)F)c2)c2c(N)ncnc21)C(C)(C)C)c1ccc(-c2scnc2C)cc1`, the DC50 was 1000 to 10000 nM.

As for `Nc1ncnc2c1c(-c1ccc3c(c1)CCN3C(=O)Cc1cccc(OC(F)(F)F)c1)cn2CCCNC(=O)CCCCCCCCCCNC(=O)CNc1ccc(C(=O)NC2CCC(=O)NC2=O)nc1` (stereo not drawn), the DC50 lay in the range of 1000 to 10000 nM.

Regarding `Cc1ncsc1-c1ccc([C@H](C)NC(=O)[C@@H]2C[C@@H](O)CN2C(=O)[C@@H](NC(=O)CCCCCCCCC(=O)NCCCn2cc(-c3ccc4c(c3)CCN4C(=O)Cc3cccc(OC(F)(F)F)c3)c3c(N)ncnc32)C(C)(C)C)cc1`, the DC50 is under 1000 nM.

For `Cc1ncsc1-c1ccc([C@H](C)NC(=O)[C@@H]2C[C@@H](O)CN2C(=O)[C@@H](NC(=O)CCCCCCCCCCC(=O)N2CCC(C(=O)N3N=CCC3c3ccccc3)CC2)C(C)(C)C)cc1` (stereo partly drawn), the DC50 is over 10000 nM.

Consider `Cc1ncsc1-c1ccc([C@H](C)NC(=O)[C@@H]2C[C@@H](O)CN2C(=O)[C@@H](NC(=O)CCCCN2CC3(CC(Oc4ccc(C(=O)NCCCn5cc(-c6ccc7c(c6)CCN7C(=O)Cc6cccc(OC(F)(F)F)c6)c6c(N)ncnc65)cn4)C3)C2)C(C)(C)C)cc1`, for which the DC50 is under 1000 nM.

Turning to `Cc1ncsc1-c1ccc(C(CC(=O)NCCOCCOCCC(=O)NCCCn2cc(-c3ccc4c(c3)CCN4C(=O)Cc3cccc(OC(F)(F)F)c3)c3c(N)ncnc32)NC(=O)C2CC(O)CN2C(=O)C(NC(=O)C2(F)CC2)C(C)(C)C)cc1` (stereo not drawn), the DC50 is under 1000 nM.

With `Cn1c(=O)n(C2CCC(=O)NC2=O)c2ccc(CCC(=O)NCCCCCCC(=O)NCCCn3cc(-c4ccc5c(c4)CCN5C(=O)Cc4cccc(OC(F)(F)F)c4)c4c(N)ncnc43)cc21` (stereo not drawn), the DC50 is under 1000 nM.

In the case of `Cc1ncsc1-c1ccc([C@H](C)NC(=O)[C@@H]2C[C@@H](O)CN2C(=O)[C@@H](NC(=O)CCOCCOCCOCCC(=O)NCCCn2cc(-c3ccc4c(c3)CCN4C(=O)Cc3cccc(OC(F)(F)F)c3)c3c(N)ncnc32)C(C)(C)C)cc1`, the DC50 is under 1000 nM.

For `O=C(NCCOCCOCCOCCC(=O)N1CCC(C(=O)N2N=CCC2c2ccccc2)CC1)[C@@H]1NC2(CCCCC2)[C@@]2(C(=O)Nc3cc(Cl)ccc32)[C@H]1c1cccc(Cl)c1F` (stereo partly drawn), the DC50 is 1000 to 10000 nM.

Consider `Nc1ncnc2c1c(-c1ccc3c(c1)CCN3C(=O)Cc1cccc(OC(F)(F)F)c1)cn2CCCNC(=O)CCCCCCCCNC(=O)COc1ccc(C2CCC(=O)NC2=O)cc1` (stereo not drawn), for which the DC50 was over 10000 nM.

In the case of `Nc1ncnc2c1c(-c1ccc3c(c1)CCN3C(=O)Cc1cccc(OC(F)(F)F)c1)cn2CCCCCNC(=O)CCCCCCCCCCNc1cccc2c1C(=O)N(C1CCC(=O)NC1=O)C2=O` (stereo not drawn), the DC50 is under 1000 nM.

Turning to `Nc1ncnc2c1c(-c1ccc3c(c1)CCN3C(=O)Cc1cccc(OC(F)(F)F)c1)cn2CCCNC(=O)CCCCCCCCNc1cc2c(cc1F)C(=O)N(C1CCC(=O)NC1=O)C2=O` (stereo not drawn), the DC50 was under 1000 nM.

As for `Nc1ncnc2c1c(-c1ccc3c(c1)CCN3C(=O)Cc1cccc(OC(F)(F)F)c1)cn2CCCNC(=O)CCCCCCCCCCNc1cc2c(cc1F)C(=O)N(C1CCC(=O)NC1=O)C2=O` (stereo not drawn), the DC50 was under 1000 nM.

Turning to `Cc1ncsc1-c1ccc([C@H](C)NC(=O)[C@@H]2C[C@@H](O)CN2C(=O)[C@@H](NC(=O)CCCCCCCCCCCCCCC(=O)NCCCn2cc(-c3ccc4c(c3)CCN4C(=O)Cc3cccc(OC(F)(F)F)c3)c3c(N)ncnc32)C(C)(C)C)cc1`, the DC50 was under 1000 nM.

Consider `Nc1ncnc2c1c(-c1ccc3c(c1)CCN3C(=O)Cc1cccc(OC(F)(F)F)c1)cn2CCCNC(=O)CCCCCCCCNc1cccc2c1C(=O)N(C1CCC(=O)NC1=O)C2=O` (stereo not drawn), for which the DC50 was under 1000 nM.

As for `O=C(NCCOCCOCCOCCOCCC(=O)N1CCC(C(=O)N2N=CCC2c2ccccc2)CC1)[C@@H]1NC2(CCCCC2)[C@@]2(C(=O)Nc3cc(Cl)ccc32)[C@H]1c1cccc(Cl)c1F` (stereo partly drawn), the DC50 lay within 1000 to 10000 nM.

For `Cc1ncsc1-c1ccc([C@H](C)NC(=O)[C@@H]2C[C@@H](O)CN2C(=O)[C@@H](NC(=O)CCOCCOCCOCCOCCNC(=O)c2ccc(-c3cc(N4CCC(C(=O)N5N=CCC5c5ccccc5)CC4)ncn3)cc2)C(C)(C)C)cc1` (stereo partly drawn), the DC50 was over 10000 nM.

Turning to `Cc1ncsc1-c1ccc([C@H](C)NC(=O)[C@@H]2C[C@@H](O)CN2C(=O)[C@@H](NC(=O)CCCCCCC(=O)NCCCn2cc(-c3ccc4c(c3)CCN4C(=O)Cc3cccc(OC(F)(F)F)c3)c3c(N)ncnc32)C(C)(C)C)cc1`, the DC50 was under 1000 nM.

For `Cc1ncsc1-c1ccc(C(CC(=O)NCCOCCOCCOCCC(=O)NCCCn2cc(-c3ccc4c(c3)CCN4C(=O)Cc3cccc(OC(F)(F)F)c3)c3c(N)ncnc32)NC(=O)C2CC(O)CN2C(=O)C(NC(=O)C2(F)CC2)C(C)(C)C)cc1` (stereo not drawn), the DC50 was under 1000 nM.

Consider `Nc1ncnc2c1c(-c1ccc3c(c1)CCN3C(=O)Cc1cccc(OC(F)(F)F)c1)cn2CCCNC(=O)CCCCCNc1cccc2c1C(=O)N(C1CCC(=O)NC1=O)C2=O` (stereo not drawn), for which the DC50 is over 10000 nM.

Source of the values: patent US20240123073A1, “NOVEL RIPK1 KINASE TARGETING PROTACS AND METHODS OF USE THEREOF” (Baylor College of Medicine, priority 2020, published 2024).
